Reference: the supplement of paper PMC10933113
Counter-ions that a name gives are not always drawn. ± gives the uncertainty stated by the source. Only a part is listed here, and it is no random draw.

test system: THP-1; assay: CD54 surface expression induction over DMSO control (% over DMSO); higher = stronger dendritic cell activation; conditions: exposure time: 24 h
Protocol: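 hCLAT-like CD54 and CD86 surface expression on THP1 cells after 24 h exposure at a single concentration (highest non-cytotoxic concentration, or 100-200 µM if not cytotoxic). Flow cytometry (iQue) was run on 5,000 live cells.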

| Compound | CD54 surface expression induction |
| --- | --- |
| Oc1ccc(O)cc1 [Hydroquinone] (10 µM) | 11.7 ± 2.7 |
| C=CC(=O)OCCOc1ccccc1 [2-Phenoxyethyl acrylate] (100 µM) | -5.56 ± 3.6 |
| CCOC(=O)N1CCC(=C2c3ccc(Cl)cc3CCc3cccnc32)CC1 [Loratadine] (100 µM) | 22.6 ± 23 |
| NNc1nncc2ccccc12 [Hydralazine hydrochloride] (10 µM) | -0.66 ± 4.2 |
| Cn1c(=O)c2c(ncn2C)n(C)c1=O [Caffeine] (100 µM) | -4.37 ± 1.2 |
| CN1CCCN=C1/C=C/c1cccs1 [Pyrantel tartrate] (100 µM) | -5.13 ± 0.88 |
